Target: Sigma 1 (Cavia porcellus, UniProt Q60492)
Experiment: Sigma-1 receptor tissue bioassay, guinea pig vas deferens, agonist activity (twitch contraction)
Conditions: field-stimulated guinea pig vas deferens, compound alone

The chains behind the UniProt entries cited, without tags or fusion partners.
UniProt Q60492, whole entry: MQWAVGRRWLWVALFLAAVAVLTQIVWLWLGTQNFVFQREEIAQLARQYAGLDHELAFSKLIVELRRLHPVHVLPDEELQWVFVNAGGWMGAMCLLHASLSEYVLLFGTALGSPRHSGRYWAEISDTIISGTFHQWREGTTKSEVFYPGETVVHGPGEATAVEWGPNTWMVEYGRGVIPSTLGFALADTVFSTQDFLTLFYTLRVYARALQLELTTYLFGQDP

(+)SKF-10,047
effect on twitch contraction amplitude: concentration-dependent increase
